According to publication PMC4734386 (The Journal of organic chemistry, 2015):

Target: T1, human neutrophil elastase (HNE) (Homo sapiens, UniProt P08246)
T1 sequence (P08246 30-267): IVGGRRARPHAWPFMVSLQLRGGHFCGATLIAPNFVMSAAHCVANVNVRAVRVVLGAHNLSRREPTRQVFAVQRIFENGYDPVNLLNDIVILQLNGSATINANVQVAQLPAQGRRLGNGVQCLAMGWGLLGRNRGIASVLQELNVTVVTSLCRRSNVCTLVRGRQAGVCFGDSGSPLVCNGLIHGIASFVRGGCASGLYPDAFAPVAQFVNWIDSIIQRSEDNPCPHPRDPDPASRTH
Assay: HNE enzyme assay
Type: biochemical

IC50: 123 nM
SMILES: CC(C)(C)C(=O)Oc1ccc(S(=O)(=O)Nc2ccccc2C(=O)NCC(=O)O)cc1 [sivelestat]
